Measured values from patent US20260232678A1, “Nasal Spray for Phosphodiesterase Inhibitors” (Cyrano Therapeutics, Inc., priority 2022, published 2026).

System: patient who had loss of taste and smell from COVID-19
[1] = 3 months, 80 μg theophylline once per day, standard nasal spray device, pre treatment 10
[2] = 3 months, 80 μg theophylline once per day, standard nasal spray device, pre treatment 11
[3] = 3 months, 80 μg theophylline once per day, standard nasal spray device, pre treatment 12

## Cn1c(=O)c2[nH]cnc2n(C)c1=O [Theophylline, theophylline]
3 months vs baseline
  fold lower concentration of AA the patient could detect: 10^8
  improvement of recognition threshold (RT) of AA: 8 bottle units
3 months vs before treatment
  detection threshold and recognition threshold in all four odorant tests: improved
[1]
  DT Thio: 4 BU
  RT Thio: 4 BU
[2]
  DT AA: 4 BU
  DT NO2B: 9 BU
  DT Pyr: 7 BU
  RT Pyr: 7 BU
[3]
  RT AA: 4 BU
  RT NO2B: 9 BU
